The target in the assay is T1, Protein translocase subunit SecA 1 (Staphylococcus aureus (strain NCTC 8325)) (UniProt O06446).
T1 sequence (whole entry): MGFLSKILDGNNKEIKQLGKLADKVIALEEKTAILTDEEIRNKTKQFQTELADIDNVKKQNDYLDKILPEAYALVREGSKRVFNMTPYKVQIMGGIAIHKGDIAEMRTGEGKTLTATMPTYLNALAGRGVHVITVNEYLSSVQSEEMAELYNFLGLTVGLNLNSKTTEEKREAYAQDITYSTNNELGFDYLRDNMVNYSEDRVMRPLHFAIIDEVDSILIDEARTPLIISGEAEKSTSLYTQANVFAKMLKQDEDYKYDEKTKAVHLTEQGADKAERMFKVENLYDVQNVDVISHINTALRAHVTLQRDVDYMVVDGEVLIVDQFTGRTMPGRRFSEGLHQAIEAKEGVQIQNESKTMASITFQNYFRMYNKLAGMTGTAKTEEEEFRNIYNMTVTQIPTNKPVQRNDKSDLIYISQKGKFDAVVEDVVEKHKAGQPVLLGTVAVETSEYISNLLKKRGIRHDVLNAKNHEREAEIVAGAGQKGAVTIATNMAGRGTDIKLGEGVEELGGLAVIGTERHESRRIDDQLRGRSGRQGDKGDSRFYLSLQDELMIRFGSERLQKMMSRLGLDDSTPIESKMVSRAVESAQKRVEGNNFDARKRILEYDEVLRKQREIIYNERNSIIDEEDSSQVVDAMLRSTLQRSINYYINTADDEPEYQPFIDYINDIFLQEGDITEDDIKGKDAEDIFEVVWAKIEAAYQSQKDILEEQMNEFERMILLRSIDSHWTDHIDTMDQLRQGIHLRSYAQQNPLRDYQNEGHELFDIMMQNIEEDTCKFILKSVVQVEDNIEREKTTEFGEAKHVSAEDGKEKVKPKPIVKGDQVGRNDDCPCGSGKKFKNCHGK
Briefly: Non-competitive inhibition of Staphylococcus aureus ATCC 35556 SecA1 liposomal ATPase activity in Xenopus laevis oocytes incubated for 3 hrs measured by Lineweaver-Burk plot analysis. In kind it is cell-based. Summed up:
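SaSecA1-liposome plus proOmpA co-injected into Xenopus oocytes at varying ATP and inhibitor concentrations, incubated 3 hr at 23 °C, ion current recorded 1 min; n = 9-10. Inhibition mode assessed across ATP levels.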

Molecules are shown by their SMILES. Active and inactive are the calls of the source. No cut-off for these calls is given here.

In the case of `O=C([O-])c1c(Cl)c(Cl)c(Cl)c(Cl)c1-c1c2cc(I)c(=O)c(I)c-2oc2c(I)c([O-])c(I)cc12.[Na+].[Na+]` [ROSE BENGAL SODIUM], the inhibition result is “Active”.
